Laboratory results published in PubChem BioAssay (Tox21).
“And” between values parts separate entries of the source, which are not always exact repeats. Equal entries are not always repeated. The entries are a selection whose mix differs from that of the whole data set. Results filed as inconclusive are left out. The source made the active and inactive calls. Unless noted, the call rests on the fitted dose curve; in most records, active means well fitted curve in the direction sought with a large enough effect in the repeat runs; inconclusive means weak or mixed curves; inactive means no such curve, though single readings can be large; an effect the other way counts as inactive or inconclusive.

The chains behind the UniProt entries cited, without tags or fusion partners.
UniProt P11511, whole entry: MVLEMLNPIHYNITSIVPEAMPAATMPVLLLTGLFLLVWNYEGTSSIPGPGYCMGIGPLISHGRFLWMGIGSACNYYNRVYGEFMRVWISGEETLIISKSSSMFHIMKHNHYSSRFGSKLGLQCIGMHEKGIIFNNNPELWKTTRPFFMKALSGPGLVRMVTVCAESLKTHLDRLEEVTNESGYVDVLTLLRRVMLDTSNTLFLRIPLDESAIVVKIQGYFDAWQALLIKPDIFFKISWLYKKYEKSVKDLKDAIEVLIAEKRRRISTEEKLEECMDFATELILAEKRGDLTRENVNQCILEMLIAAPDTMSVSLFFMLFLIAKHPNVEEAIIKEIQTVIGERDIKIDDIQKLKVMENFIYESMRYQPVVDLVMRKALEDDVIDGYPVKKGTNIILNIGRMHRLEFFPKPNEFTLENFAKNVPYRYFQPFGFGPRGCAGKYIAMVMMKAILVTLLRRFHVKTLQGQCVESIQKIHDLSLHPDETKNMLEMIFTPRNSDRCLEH

Tests used:
[1] = qHTS assay for small molecules that induce genotoxicity in human embryonic kidney cells expressing luciferase-tagged ATAD5 (AID 651632); conditions: HEK293T ATAD5-luciferase induction, 16 h; further: nearly all actives have a fitted effect of over 15% in size
Method in brief: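 Quantitative HTS in HEK293T expressing luciferase-tagged ATAD5, whose levels rise upon DNA damage. Exposure ran 16 hr at 37C and 5% CO2, with luminescence read 30 min after Amplite addition at room temperature.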

[2] = qHTS assay for small molecule agonists of the p53 signaling pathway - cell viability (AID 651633; calls by dose curve; further: nearly all actives have a fitted effect of over 30% in size); conditions: p53RE-bla HCT-116 viability, ATP luminescence, 16 h
Method in brief: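 p53RE-bla cells were treated with compound for 16 hours at 37 C. Cytotoxicity was then measured as CellTiter-Glo luminescence after 30 min at room temperature.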

[3] = qHTS assay for small molecules that induce genotoxicity in human embryonic kidney cells expressing luciferase-tagged ATAD5 - cell viability (AID 651634; calls by dose curve; further: nearly all actives have a fitted effect of over 25% in size); conditions: HEK293T ATAD5-luc cells viability, CellTiter-Fluor, 15.5 h
Method in brief: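 After 15.5 hr incubation with compound at 37C, 5% CO2, HEK293T ATAD5-luciferase cells received CellTiter-Fluor reagent; fluorescence intensity was quantified following 30 min at 37C.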

[4] = qHTS assay for small molecule disruptors of the mitochondrial membrane potential (AID 720635); conditions: HepG2 mitochondrial membrane potential, Mito-MPS dye ratio
Method in brief: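 HepG2 cells exposed to compound 1 hr at 37C, then Mito-MPS dye 30 min. Ratio read of aggregate (540/590 nm) versus monomer (490/535 nm) fluorescence.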

[5] = qHTS assay for identifying genotoxic compounds that show differential cytotoxicity against isogenic chicken DT40 cell lines with known DNA damage response pathways - wild type cell line (AID 743012); conditions: DT40 wild type chicken cells viability, CellTiter-Glo, 40 h; further: nearly all actives have a fitted effect of over 60% in size
Method in brief: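 Luminescent ATP viability signal (CellTiter-Glo, 30 min RT) recorded after wild type DT40 cells were incubated with compounds for 40 h at 37 C/5% CO2.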

[6] = qHTS assay for identifying genotoxic compounds that show differential cytotoxicity against isogenic chicken DT40 cell lines with known DNA damage response pathways - Rad54/Ku70 mutant cell line (AID 743015); conditions: DT40 Rad54/Ku70 mutant viability, CellTiter-Glo, 40 h; further: nearly all actives have a fitted effect of over 60% in size
Description: National Center for Advancing Translational Sciences [NCATS]
NIH Chemical Genomics Center [NCGC]
U.S. Environmental Protection Agency [EPA]
National Institutes of Environmental Health Sciences [NIEHS]
National Toxicology Program [NTP]
U.S. Food and Drug Administration [FDA]
DNA repair pathways play a critical role in cellular homeostasis by repairing DNA damage induced by endogenous processes and xenobiotics. Isogenic chicken DT40 cell lines deficient in different DNA repair pathways can be used to identify genotoxic compounds and aid in characterizing the nature of the DNA damage induced. Two DNA repair-deficient cell lines with disrupted genes, Rad54/Ku70 or Rev3, were used to screen the Tox21 10K compound library. Possible genotoxicity was based on the presence of a significant increase in cytotoxicity in one or more of the DNA repair-deficient cell lines compared to that observed in the parental DNA repair-proficient cell line. […]
300 DT40 mutant cells in 5 uL/well were dispensed into white, solid-bottom 1536-well plates using a Multidrop Combi (ThermoFisher Scientific, Waltham, MA) dispenser. […] After 5 uL per well of CellTiter-Glo reagent was added into each well of the assay plates, the plates were incubated for 30 min at room temperature and the luminescence intensity of the plates was measured using a ViewLux (PerkinElmer, Shelton, CT) plate reader.

[7] = qHTS assay to identify small molecule antagonists of the androgen receptor (AR) signaling pathway using the MDA cell line - cell viability counter screen (AID 743041; further: nearly all actives have a fitted effect of over 45% in size); conditions: MDA-kb2 viability, CellTiter-Fluor, 16 h; cells co-treated with R1881 androgen agonist
Method in brief: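 Cytotoxicity counter screen: MDA-kb2 AR-luc cells, compound + R1881, 16 h, 37C, 0% CO2; CellTiter-Fluor added at 15.5 h, fluorescence read after 30 min.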

[8] = qHTS assay to identify small molecule antagonists of the thyroid receptor (TR) signaling pathway - cell viability counter screen (AID 743064); conditions: GH3.TRE-Luc viability, CellTiter-Fluor, 24 h; further: nearly all actives have a fitted effect of over 50% in size
Method in brief: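 Rat GH3 pituitary tumor cells stably expressing two TR response elements driving luciferase were plated, rested 4 h, then dosed with library compounds and T3 (1 nM final). After 23.5 h at 37 °C, CellTiter-Fluor was added for 30 min and fluorescence recorded.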

[9] = qHTS assay to identify small molecule antagonists of the thyroid receptor (TR) signaling pathway (AID 743065); conditions: GH3.TRE-Luc, T3-stimulated luciferase inhibition, 23.5 h; further: nearly all actives have a fitted effect of over 55% in size
Method in brief: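 GH3.TRE-Luc rat pituitary cells (two TREs driving luciferase) were dosed with compound, then stimulated with 1 nM T3 (final) for 23.5 h at 37 C. ONE-Glo luminescence was the read-out, with CellTiter-Fluor fluorescence as the cytotoxicity counter-screen.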

[10] = qHTS assay to identify small molecule antagonists of the estrogen receptor alpha (ER-alpha) signaling pathway using the BG1 cell line (AID 743080; calls by dose curve;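 further: BG1 cells stimulated with 17beta-estradiol alongside compound; nearly all actives have a fitted effect of over 25% in size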); conditions: BG1Luc4E2 ERE-luciferase antagonist mode, luminescence
Method in brief: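 BG1-Luc-4E2 cells (endogenous full-length ER-alpha, stable 4×ERE-luciferase) were starved 5 days in phenol-red-free medium with 10% charcoal-stripped FBS, plated 24 h, then given compound plus 17beta-estradiol for 21.5 h at 37 C; ONE-Glo luminescence read after 30 min.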

Aromatase (Homo sapiens) = Aromatase (Homo sapiens) (UniProt P11511); test: qHTS assay to identify aromatase inhibitors (AID 743083); conditions: MCF-7 aro ERE, testosterone-driven ERE luciferase, 24 h; further: nearly all actives have a fitted effect of over 55% in size
[11] = qHTS assay to identify aromatase inhibitors - cell viability counter screen (AID 743084);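 further: cells stimulated with testosterone during compound exposure; nearly all actives have a fitted effect of over 55% in size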
[12] = qHTS assay to identify small molecule that activate the aryl hydrocarbon receptor (AhR) signaling pathway - cell viability counter screen (AID 743086); conditions: HepG2-AhR-luc viability, CellTiter-Fluor, 24 h; further: nearly all actives have a fitted effect of over 45% in size
Method in brief: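 HepG2-AhR-luc (HG2L7.5c1) cells, 4000/well, treated 24 h at 37 C with compound; viability measured as CellTiter-Fluor fluorescence after 30 min in the same wells as the luciferase read.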

[13] = qHTS assay for small molecule agonists of the antioxidant response element (ARE) signaling pathway (AID 743202; active means well fitted activation curve with a large enough effect in the signal ratio in the repeat runs, not every such curve was filed as active; the % refers to the signal ratio); conditions: HepG2 ARE-bla reporter, beta-lactamase FRET, 16 h
Method in brief: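 HepG2 ARE-bla reporter line, 2,000 cells/well; 5 h preincubation 37 C/5% CO2; compound (DMSO) 16 h 37 C; B/G FRET substrate 2 h RT; fluorescence intensity.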

[14] = qHTS assay for small molecule agonists of the antioxidant response element (ARE) signaling pathway - cell viability counter screen (AID 743203; calls by dose curve; further: nearly all actives have a fitted effect of over 55% in size); conditions: ARE-bla HepG2 viability, CellTiter-Glo luminescence, 16 h
Method in brief: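 Viability counter screen: stably transfected ARE-bla HepG2 line, 16 hrs compound exposure at 37C/5% CO2, ATP-based CellTiter-Glo luminescence measured in the reporter wells.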

[15] = qHTS assay for small molecule activators of the heat shock response signaling pathway - cell viability counter screen (AID 743209); conditions: HSE-bla HeLa viability, CellTiter-Glo luminescence, 5 h; further: nearly all actives have a fitted effect of over 50% in size
Method in brief: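 Viability of HSE-bla HeLa cells is measured with CellTiter-Glo in the wells already used for the reporter read. Compound exposure lasts 5 h at 37 C, and luminescence is read after 30 min at room temperature.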

[16] = qHTS assay to identify small molecule agonists of the peroxisome proliferator-activated receptor delta (PPARd) signaling pathway - cell viability counter screen (AID 743211); conditions: PPARd-bla HEK293H viability, CellTiter-Glo luminescence, 17 h; further: nearly all actives have a fitted effect of over 55% in size
Method in brief: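 Counter screen for cytotoxicity run in parallel with the PPARd reporter screen. Beta-lactamase reporter HEK293H cells exposed to compounds 17 h; ATP-based CellTiter-Glo luminescence quantified viability.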

[17] = qHTS assay to identify small molecule agonists of the farnesoid-X-receptor (FXR) signaling pathway - cell viability counter screen (AID 743218); conditions: FXR-bla HEK293T viability, CellTiter-Glo luminescence, 16 h; further: nearly all actives have a fitted effect of over 45% in size
Method in brief: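 Viability of FXR-bla HEK 293T cells is measured by ATP-based CellTiter-Glo luminescence following 16 h compound treatment at 37 C and a prior 2 h room-temperature beta-lactamase substrate step.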

Measured: Potency
Potency means the concentration at half of the fitted maximal effect.

CN(CCCl)CCCl
active: [1] 29.8 µM and 12.2 µM | [2] 29.8 µM | [3] 48.5 µM | [4] 2.43 µM | [5] 13.3 µM | [6] 11.9 µM and 12.2 µM | [7] 54.4 µM | [8] 13.3 µM and 12.2 µM | [9] 10.6 µM | [10] 26.6 µM | Aromatase (Homo sapiens) 12.2 µM | [11] 26.6 µM | [12] 30.6 µM | [13] 9.67 µM and 13.3 µM | [14] 43.2 µM | [15] 21.1 µM | [16] 43.6 µM | [17] 54.8 µM
